Tests used:
HCC1954 cells = assay: Cytotoxicity; format: cell-based; details: for ADC cytotoxic IC50 of T-PBD and T-CaliG compared with each other: after 6 days
[1] = tested on: HCC1954 (Ag+) and MDA-MB-468 (Ag−) co-culture; assay: Bystander co-culture assay; format: cell-based; details: 6 days, varying % Ag+ cells

| Substance | Cytotoxic IC50 of trastuzumab-payload conjugate (in words) (HCC1954 cells; HCC1954 cells, 6 days) | Ag− cell bystander toxicity in co-culture (in words) ([1]; 50 pM ADC) | ADC cytotoxic IC50 of T-PBD and T-CaliG compared with each other (HCC1954 cells) | Ag− cell bystander toxicity in co-culture (in words) ([1]; 500 pM ADC) |
| --- | --- | --- | --- | --- |
| T-CaliD: trastuzumab conjugated to calicheamicin D | sub-picomolar | bystander cell death with as low as 25% Ag+ cells |  |  |
| T-CaliG: trastuzumab conjugated to calicheamicin G |  |  | roughly similar |  |
| T-PBD |  |  | roughly similar | bystander cell death with as low as 25% Ag+ cells |

Source: paper PMC8832507 (Molecular cancer therapeutics, 2021)
